Test results: ChEMBL document CHEMBL4184319, “Fluorescent-Labeled Selective Adenosine A2B Receptor Antagonist Enables Competition Binding Assay by Flow Cytometry” (J Med Chem, 2018)

Molecular target: T1, Adenosine receptor A2b (Homo sapiens, UniProt P29275)
T1 sequence (P29275 whole entry): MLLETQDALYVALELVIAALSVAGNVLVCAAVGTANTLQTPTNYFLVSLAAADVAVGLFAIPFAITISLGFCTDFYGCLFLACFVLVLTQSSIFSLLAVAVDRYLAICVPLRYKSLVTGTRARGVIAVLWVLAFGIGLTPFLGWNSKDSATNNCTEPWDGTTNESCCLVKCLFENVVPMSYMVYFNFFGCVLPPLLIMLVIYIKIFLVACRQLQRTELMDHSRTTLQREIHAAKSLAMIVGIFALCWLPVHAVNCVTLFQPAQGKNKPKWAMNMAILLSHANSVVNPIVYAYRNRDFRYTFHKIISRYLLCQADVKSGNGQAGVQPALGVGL
Experiment: Displacement of PSB-12105 from recombinant human adenosine A2B receptor expressed in CHO cell membranes preincubated for 30 mins followed by PSB-12105 addition measured after 20 mins by flow cytometric method
Type: cell-based
Outline: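 Live CHO-hA2B cells were pre-treated with ADA (2 U/mL, 2 h, 37°C), detached with 5 mM EDTA, and resuspended in HBSS with 2 U/mL ADA at 2.5×10^5 cells/well in 96-well format. Antagonists pre-incubated 30 min at 37°C, then fluorescent ligand (100 nM) added for 20 min at 37°C. 3-5 independent experiments in duplicate.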

Compound: Nc1nc2ccc(Cl)cc2c2nc(-c3ccco3)nn12 [CGS-15943]
- IC50: 60.7 nM
